Biological target: T1, mutant ATXN1 protein (His-ATXN1-Q92) (Homo sapiens, UniProt P54253, INS208QQQQQQQQQQQQQQQQQQQQQQQQQQQQQQQQQQQQQQQQQQQQQQQQQQQQQQQQQQQQQQQQQQQQQQQQQQQQQQQQ)
T1 construct: expressed in transfected cells; host or cells: HEK293T cells (ATCC, CRL-3216)
Test: HTRF mutant ATXN1 level in His-ATXN1-Q92-expressing cells
Assay type: cell-based

Sequences of proteins named here, by UniProt entry; tags and fusion partners are left off. A line that says so, or that is headed by a name, gives the form on record, which may keep a tag or linker.
UniProt P54253, with tags, fused parts or gaps with the stated changes: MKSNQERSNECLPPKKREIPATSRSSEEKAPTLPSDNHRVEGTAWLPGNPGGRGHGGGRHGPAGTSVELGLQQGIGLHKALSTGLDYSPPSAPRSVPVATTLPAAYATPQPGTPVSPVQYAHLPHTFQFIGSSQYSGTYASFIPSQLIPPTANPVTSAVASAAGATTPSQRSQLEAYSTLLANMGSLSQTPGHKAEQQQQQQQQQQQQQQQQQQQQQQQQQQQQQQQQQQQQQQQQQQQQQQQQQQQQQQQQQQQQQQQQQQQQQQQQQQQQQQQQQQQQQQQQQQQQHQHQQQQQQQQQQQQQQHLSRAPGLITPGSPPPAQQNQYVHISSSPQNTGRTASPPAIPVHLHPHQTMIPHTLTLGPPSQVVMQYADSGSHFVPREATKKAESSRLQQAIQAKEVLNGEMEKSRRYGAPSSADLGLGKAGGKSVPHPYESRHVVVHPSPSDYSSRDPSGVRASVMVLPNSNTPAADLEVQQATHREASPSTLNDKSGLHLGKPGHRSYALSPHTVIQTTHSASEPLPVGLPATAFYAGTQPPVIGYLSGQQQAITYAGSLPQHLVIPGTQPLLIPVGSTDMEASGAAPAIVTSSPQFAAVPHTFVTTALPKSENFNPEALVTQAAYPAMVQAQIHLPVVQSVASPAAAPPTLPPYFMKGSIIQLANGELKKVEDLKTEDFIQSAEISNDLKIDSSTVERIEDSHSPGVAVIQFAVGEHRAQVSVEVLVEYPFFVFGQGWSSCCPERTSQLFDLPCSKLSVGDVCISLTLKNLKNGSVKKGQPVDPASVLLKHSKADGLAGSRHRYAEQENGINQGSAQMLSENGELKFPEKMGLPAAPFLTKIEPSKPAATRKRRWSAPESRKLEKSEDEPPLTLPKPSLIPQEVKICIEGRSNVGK

SMILES	level of mutant ATXN1 protein (His-ATXN1-Q92)
COc1ccc2c(c1)/C(=C/c1cnc[nH]1)C(=O)N2 [compound 6, Su9516]	Decreased levels of mutant ATXN1 were observed
O=c1cc(-c2ccccc2)c2ccc(O)c(O)c2o1 [compound 7]	Decreased levels of mutant ATXN1 were observed

Source: patent US20220170930A1, “METHOD FOR SCREENING COMPOUND FOR TREATING OR PREVENTING POLYQ-RELATED NEURODEGENERATIVE DISEASES” (FUDAN UNIVERSITY, priority 2019, published 2022)
